Usually inhibition stands for the share of the control response that was lost under treatment.

By UniProt entry, the sequences of proteins in these tests, tags left out.
UniProt Q07817, whole entry, looked up: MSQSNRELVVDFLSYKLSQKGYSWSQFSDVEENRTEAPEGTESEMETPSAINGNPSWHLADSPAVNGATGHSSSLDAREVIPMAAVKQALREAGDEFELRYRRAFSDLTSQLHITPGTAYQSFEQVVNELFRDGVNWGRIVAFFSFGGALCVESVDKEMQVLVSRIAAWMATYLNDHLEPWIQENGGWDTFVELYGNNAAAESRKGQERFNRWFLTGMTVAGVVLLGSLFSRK

Structures are written as SMILES. The entries are a selection whose mix differs from that of the whole data set. Calls of active or inactive are those of the source.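 How the source made its calls: active means inhibition above a cutoff equal to the mean inhibition of all tested compounds plus 3 SD (cut at about 30% in these data); inactive means the rest.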

Results on five molecules are retold here after PubChem BioAssay AID2166 (The Scripps Research Institute Molecular Screening Center, 2009).

The test deals with Bcl-2-like protein 1 (Homo sapiens) (UniProt Q07817). Nature of the test: Bcl-xL inhibitors blocking Bim BH3 binding, confirmation, counter-screen for MCL1 inhibitor project, biochemical, fluorescence polarization (AID 2166). The note with it: GST-Bcl-xL / FITC-Bim BH3 peptide FP binding; at 10.9 µM; hits give high values. For orientation: A counterscreen serves to expose hits that act by an unwanted route or on another target.
Take `C[N+]1=C2C=CC=CC=C2SC12C([N+](=O)[O-])=CC([N+](=O)[O-])=C[C-]2[N+](=O)[O-]` (stereo not given): the inhibition was inactive: 22.5%.
To `CN(C(=O)Cc1ccc(Cl)c(Cl)c1)[C@H]1CCCC[C@@H]1N1CCCC1` belongs inactive: 30.1%; to `O=C(OC1CN2CCC1CC2)c1ccc(Cl)cc1` (stereo not given), inactive: 0.75%.
Consider `Nc1cccc2c([As](=O)(O)O)cccc12`, for which the inhibition was active: 53.6%.
To `CS(=O)(=O)c1cc([N+](=O)[O-])c2no[n+]([O-])c2c1` belongs active: 40.9%.
